# Measured affinities in a library of Ab-95 light chain variants

All variants were tested on one target, the spike HR2 peptide PDVDLGDISGINAS (SARS-CoV-2).

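The parent was found by panning a naive human phage display library on the peptide. The library (AAYL52) carries one to three amino acid substitutions per variant, with no insertions or deletions. In AlphaSeq, yeast of one mating type display the scFv and yeast of the other type display the target. Pairs that bind mate more often; barcode pairs of the diploids are counted by sequencing. Read counts were normalised to the haploid input and turned into Kd by a linear fit to BCL2-family pairs of known affinity, for each replicate. The assay was run in three technical replicates.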

Each scFv is VH, a 15-residue (Gly4Ser)3 linker, VL, as in the parent Ab-95, and differs from it in the CDRs of the light chain only.
VH: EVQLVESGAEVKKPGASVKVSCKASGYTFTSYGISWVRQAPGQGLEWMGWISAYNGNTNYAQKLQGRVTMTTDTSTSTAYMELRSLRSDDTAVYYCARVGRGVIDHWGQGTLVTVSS
VL: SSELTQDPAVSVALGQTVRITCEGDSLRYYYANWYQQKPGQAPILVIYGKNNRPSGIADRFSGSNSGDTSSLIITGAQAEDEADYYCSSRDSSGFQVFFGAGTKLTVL

Each variant is given by its three light chain CDRs, as the data file delimits them; those of the parent are EGDSLRYYYAN, GKNNRPS, SSRDSSGFQVF. The read-out is the apparent dissociation constant on a log10 scale (nM): the lower, the stronger. Where no diploid with the target was found in that replicate, the entry reads "nd": below detection, most likely a poor binder, though not proof of it.

Variant EGDSLRYYYAN / GKNNRPA / VSRDSSGFQNF gave 2.67, 2.47, 2.44 (controls 5 of 9).
Variant EGDSLRYYYAN / HKNNRPS / SSRWSSGFKVF gave 3.11, nd, nd (controls 0 of 9).
Variant EGYSLRYYYAN / GKNNRPS / SSRDSHGFQMF gave 2.91, nd, nd (controls 0 of 9).
Variant EGDSLSYYYAN / GKNNRPS / SNRHSSGFQVF gave 3.17, 2.97, 3.06 (controls 3 of 9).
Variant KGDSLRYYYAN / RKNNRES / SSRDSSGFQVF gave 4.62, 3.91, nd (controls 0 of 9).
Variant EGDSLRYYYAN / GYNNRPS / SSGDSSCFQVF gave nd, nd, nd (controls 2 of 9).
Variant EGDFLRYYYAN / GINNRPS / SSRDSSGFAVF gave 3.63, 5.52, nd (controls 2 of 9).
Variant EGDSTRYYYAN / SKNNRPS / SSADSSGFQVF gave nd, nd, nd (controls 1 of 9).
Variant EGDCLRYYYAN / GKNNRPT / SSRGSSGFQVF gave 3.30, 2.39, 3.30 (controls 3 of 9).
Variant DGDSLRYYYAN / GKNNRPS / SSRDSSGFQVF gave 2.92, 2.55, 2.89 (controls 3 of 9).
Variant EGHSLRYYYAN / GPNNRPS / SSRDSSGFYVF gave 3.09, 2.74, 3.52 (controls 5 of 9).
Variant EGDIMRYYYAN / GKNNRPS / SSRDSSPFQVF gave 4.33, 4.26, nd (controls 3 of 9).
Variant EGDALRYYYAN / GKGNRPS / SSRTSSGFQVF gave 2.96, 3.14, 2.82 (controls 5 of 9).
Variant EGDSLRYYYAN / NKNNRPS / SSRDSSPFNVF gave nd, 4.75, nd (controls 3 of 9).
Variant EGDSLRYYYGN / GKNNRNS / SSRDSSGCQVF gave nd, nd, nd (controls 1 of 9).
Variant EGDSLRYYYAN / GQNNRCS / NSRDSSGFQVF gave 3.11, 2.68, 2.74 (controls 2 of 9).
Variant EGDSLMYYYAN / GKNNRPY / SSRFSSGFQVF gave nd, nd, nd (controls 3 of 9).
Variant EGDSLRYYYHN / GKNNRPS / SSQDSSGEQVF gave 4.50, 4.07, nd (controls 2 of 9).
Variant YGDSLRYYYAN / GKNNRPS / NSADSSGFQVF gave nd, nd, nd (controls 4 of 9).
Variant EFDGLRYYYAN / GKNNRPS / SSRDSSGWQVF gave 2.93, 3.47, 2.91 (controls 1 of 9).
Variant EGDSLRYYYAN / RKNNRFS / DSRDSSGFQVF gave 4.18, nd, nd (controls 1 of 9).
Variant EGDSLRYYYAN / GHNNRPS / WSRDSSIFQVF gave 2.17, 1.70, 1.71 (controls 2 of 9).
Variant EGDSLRYYYGN / GKNNRPS / SSRDDSGMQVF gave 3.12, 4.20, nd (controls 3 of 9).
Variant EGDSLRYYYAY / GKNNRPS / SSRDSSGFLVF gave 3.36, 3.19, 3.56 (controls 4 of 9).
Variant EGDSLRYYYAL / GKNNRPS / SLRDSSGFQVF gave 4.19, 5.75, nd (controls 2 of 9).
Variant EGDFLRYYYAN / GKNNRYS / SSRQSSGFQVF gave nd, nd, nd (controls 3 of 9).
Variant EGDSLRYYYAN / GPNNRPS / SSRCSSGVQVF gave 3.50, nd, 4.15 (controls 2 of 9).
Variant EGDSLRYYYAN / GKNNRSS / SYRDSSQFQVF gave 3.33, 3.48, nd (controls 0 of 9).
Variant EGDSGRYYYAV / GSNNRPS / SSRDSSGFQVF gave 3.82, nd, nd (controls 1 of 9).
Variant RGDSLRYYYAN / VSNNRPS / SSRDSSGFQVF gave nd, 5.28, nd (controls 0 of 9).
Variant EGDSLPYYYAN / GKNNWPS / SSRDSEGFQVF gave nd, 4.10, 4.16 (controls 3 of 9).
Variant EGDSLRYYYAN / GKNVRQS / SSRDSSGFNVF gave 2.70, 2.46, 2.07 (controls 2 of 9).
Variant EGDSLRYYYAN / GKNNPPS / SSGDCSGFQVF gave 4.75, nd, 2.65 (controls 3 of 9).
Variant EGDSLRYYLAN / GKNNRPM / SDRDSSGFQVF gave 4.36, 3.97, 2.83 (controls 5 of 9).
Variant EGDWLRYYYAN / GKANRPS / SKRDSSGFQVF gave nd, 4.63, nd (controls 4 of 9).
Variant EGDSLRYYYNA / GYNNRPS / SSRDSSGFQVF gave 5.14, 5.27, nd (controls 3 of 9).
Variant EGDSARYYYAN / GKNNRPS / SSRDSIGFQGF gave 3.09, nd, nd (controls 2 of 9).
Variant EGDSLDYYYAN / GWNNRPS / SSRDSSGWQVF gave 3.88, 3.80, 3.55 (controls 5 of 9).
Variant EGDSWRYHYAN / GKNNRPS / SSRDSSGNQVF gave 3.67, 2.92, 3.06 (controls 3 of 9).
Variant EFDILRYYYAN / GDNNRPS / SSRDSSGFQVF gave 2.78, 2.86, 3.17 (controls 3 of 9).
Variant EGDSLRYYYAN / GKNNRPT / SSRDFSGWQVF gave 2.93, 3.41, 2.13 (controls 4 of 9).
Variant EGDSLRYYGAN / GKNNRPS / SSRDPSGFQVF gave 1.79, 1.54, 1.20 (controls 2 of 9).

The first 6 entries again:

For EGDSLRYYYAN / GKNNRPA / VSRDSSGFQNF, the assay gave 2.67, 2.47, 2.44 (controls 5 of 9).
For EGDSLRYYYAN / HKNNRPS / SSRWSSGFKVF, the assay gave 3.11, nd, nd (controls 0 of 9).
For EGYSLRYYYAN / GKNNRPS / SSRDSHGFQMF, the assay gave 2.91, nd, nd (controls 0 of 9).
For EGDSLSYYYAN / GKNNRPS / SNRHSSGFQVF, the assay gave 3.17, 2.97, 3.06 (controls 3 of 9).
For KGDSLRYYYAN / RKNNRES / SSRDSSGFQVF, the assay gave 4.62, 3.91, nd (controls 0 of 9).
For EGDSLRYYYAN / GYNNRPS / SSGDSSCFQVF, the assay gave nd, nd, nd (controls 2 of 9).

As a blank, each scFv also met three strains without target: over library AAYL52, 28% of these pairings were detected, typically at 3.91 and seldom below 2.90. For each scFv, signals with the empty controls are counted beside the result.

From the AlphaSeq antibody data of Engelhart et al. 2022 (doi:10.1038/s41597-022-01779-4), copy in the FLAb collection.